{"sequences": {"note": "Sequences of proteins named here, by UniProt entry; tags and fusion partners are left off. Residues count along the entry.", "UniProt P05979, 25-600 limits assumed": "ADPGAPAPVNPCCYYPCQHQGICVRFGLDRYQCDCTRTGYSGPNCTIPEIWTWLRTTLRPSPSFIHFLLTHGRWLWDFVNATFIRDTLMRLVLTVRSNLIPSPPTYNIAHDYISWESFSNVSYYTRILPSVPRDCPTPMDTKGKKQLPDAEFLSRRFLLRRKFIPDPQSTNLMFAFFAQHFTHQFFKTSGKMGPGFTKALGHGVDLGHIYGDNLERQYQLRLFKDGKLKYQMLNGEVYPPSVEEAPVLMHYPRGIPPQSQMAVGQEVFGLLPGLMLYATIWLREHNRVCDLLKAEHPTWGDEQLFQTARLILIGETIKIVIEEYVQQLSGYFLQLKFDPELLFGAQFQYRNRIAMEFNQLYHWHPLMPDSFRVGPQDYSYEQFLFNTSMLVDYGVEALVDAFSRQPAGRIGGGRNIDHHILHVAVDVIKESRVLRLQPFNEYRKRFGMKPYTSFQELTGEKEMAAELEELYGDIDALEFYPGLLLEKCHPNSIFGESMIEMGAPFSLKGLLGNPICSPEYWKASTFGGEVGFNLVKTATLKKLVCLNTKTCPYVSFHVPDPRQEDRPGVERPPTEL", "UniProt P79208, 17-603 limits assumed": "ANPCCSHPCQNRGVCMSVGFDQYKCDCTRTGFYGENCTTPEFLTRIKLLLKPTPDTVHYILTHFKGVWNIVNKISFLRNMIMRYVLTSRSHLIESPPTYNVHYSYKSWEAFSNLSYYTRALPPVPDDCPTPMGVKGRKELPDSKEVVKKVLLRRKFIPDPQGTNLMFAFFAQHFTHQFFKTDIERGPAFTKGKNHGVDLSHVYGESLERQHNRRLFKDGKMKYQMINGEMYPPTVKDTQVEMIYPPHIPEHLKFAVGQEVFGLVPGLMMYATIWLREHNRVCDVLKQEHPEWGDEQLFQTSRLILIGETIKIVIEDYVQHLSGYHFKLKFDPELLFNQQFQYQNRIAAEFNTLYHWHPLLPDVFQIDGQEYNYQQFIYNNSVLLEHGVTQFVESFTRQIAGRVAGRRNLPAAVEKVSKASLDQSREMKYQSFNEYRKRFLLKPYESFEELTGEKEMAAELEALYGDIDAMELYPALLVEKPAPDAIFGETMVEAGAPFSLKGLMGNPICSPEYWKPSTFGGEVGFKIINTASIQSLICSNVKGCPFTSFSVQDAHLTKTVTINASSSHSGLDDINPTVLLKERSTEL"}, "source": "ChEMBL document CHEMBL1140805", "about": "“1-Toluene-sulfonyl-3-[(3'-hydroxy-5'-substituted)-gamma-butyrolactone]-indoles: synthesis, COX-2 inhibition and anti-cancer activities” (Bioorg Med Chem Lett, 2008)", "key": {"MCF7": {"test_system": "MCF7", "test": "Antitumor activity against human MCF7 cells"}, "Malme-3M": {"test_system": "Malme-3M", "test": "Antitumor activity against human MALME3M cells"}, "[1]": {"molecular_target": "Prostaglandin G/H synthase 1 (Ovis aries, UniProt P05979)"}, "PC-3": {"test_system": "PC-3", "test": "Antitumor activity against human PC3 cells"}, "RXF 393": {"test_system": "RXF 393", "test": "Antitumor activity against human RXF393 cells"}, "MDA-MB-435": {"test_system": "MDA-MB-435", "test": "Antitumor activity against human MDA-MB-435 cells"}, "M14": {"test_system": "M14", "test": "Antitumor activity against human M14 cells"}, "[2]": {"test": "Partition coefficient, log P of the compound", "conditions": "octanol/water"}, "[3]": {"molecular_target": "Prostaglandin G/H synthase 2 (Ovis aries, UniProt P79208)"}}, "data": [{"smiles": "Cc1ccc(S(=O)(=O)n2cc([C@@]3(O)C[C@H](CC#N)OC3=O)c3ccccc32)cc1", "values": [{"measurement": "GI50", "setting": "MCF7", "value": 100, "unit": "nM"}, {"measurement": "GI50", "setting": "Malme-3M", "value": 100, "unit": "nM"}, {"measurement": "IC50", "setting": "[1]", "value": "< 10000", "unit": "nM"}, {"measurement": "GI50", "setting": "PC-3", "value": 100, "unit": "nM"}, {"measurement": "GI50", "setting": "RXF 393", "value": 100, "unit": "nM"}, {"measurement": "GI50", "setting": "MDA-MB-435", "value": 100, "unit": "nM"}, {"measurement": "GI50", "setting": "M14", "value": 100, "unit": "nM"}, {"measurement": "LogP", "setting": "[2]", "value": 0.94}, {"measurement": "IC50", "setting": "[3]", "value": "< 1", "unit": "nM"}]}]}
